ChEMBL document CHEMBL4396888, “Design and Synthesis of Potent, Selective Inhibitors of Protein Arginine Methyltransferase 4 against Acute Myeloid Leukemia” (J Med Chem, 2019)

Protein sequences, listed by entry. Tags and fused reporters are not part of them. Lines headed by an entry give the natural chain unless they say otherwise; changes in a name come on top.
UniProt O60678: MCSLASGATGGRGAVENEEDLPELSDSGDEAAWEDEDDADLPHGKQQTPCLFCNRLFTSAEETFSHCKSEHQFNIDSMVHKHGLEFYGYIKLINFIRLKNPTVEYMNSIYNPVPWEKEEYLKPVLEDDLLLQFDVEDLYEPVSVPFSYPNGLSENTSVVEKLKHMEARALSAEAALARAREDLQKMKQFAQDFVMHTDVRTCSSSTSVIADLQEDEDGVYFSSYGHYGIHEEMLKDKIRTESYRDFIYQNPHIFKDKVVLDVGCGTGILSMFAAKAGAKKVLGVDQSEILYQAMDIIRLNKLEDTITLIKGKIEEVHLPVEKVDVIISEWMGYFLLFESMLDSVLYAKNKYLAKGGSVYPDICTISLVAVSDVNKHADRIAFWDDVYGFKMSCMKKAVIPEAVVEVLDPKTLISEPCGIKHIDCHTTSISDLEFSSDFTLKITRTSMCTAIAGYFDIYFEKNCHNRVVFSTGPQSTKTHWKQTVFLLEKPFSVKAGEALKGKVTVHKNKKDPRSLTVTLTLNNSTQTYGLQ

Target: Protein arginine N-methyltransferase 3 (Homo sapiens, UniProt O60678)
Assay: Inhibition of PRMT3 (unknown origin) using biotinylated histone H4 (1 to 24 residues) as substrate in presence of [3H]SAM by scintillation proximity assay

Compound CC(C)Oc1ccc(-c2c[nH]cc2CN(C)CCN)cc1 has an IC50 of 4 to 119 nM.
